Measured values: publication PMC12628701, “Paroxysmal Nocturnal Hemoglobinuria in Pregnancy Treated With Pegcetacoplan: Case Report and Pharmacokinetic Analysis” (EJHaem, 2025)

Legend:
[1] = test system: patient with hemolytic PNH; test: Hematological response (hemoglobin, hemolytic markers, transfusion requirements) in pregnant patient with PNH; assay type: in vivo, human; details: for Hapto: normal 0.3–2.0; for ARC: normal 10–100; for Hb: normal 115–160; for Bili: normal ≤ 21; for LDH: normal ≤ 214
Protocol: The patient was a person diagnosed with hemolytic PNH 5 years before their first pregnancy, with a 95% PNH neutrophil clone by flow cytometry. Upon diagnosis, they were initiated and maintained on eculizumab but remained transfusion‐dependent (∼1 unit RBC/month) despite dose escalation to 1200 mg intravenous every 11 days.
An unplanned pregnancy was identified during treatment with pegcetacoplan. Given the lack of safety data, they were reloaded with eculizumab at 4 weeks’ gestation, with pegcetacoplan discontinued at the time of the first eculizumab infusion. Prophylactic‐dose dalteparin was prescribed. Despite increased eculizumab dosing (1200 mg every 11 days), they redeveloped transfusion‐dependent anemia with signs of extravascular hemolysis, requiring 2–3 units RBC/month. Due to increasing transfusion requirements throughout the second trimester, following multidisciplinary consultation and shared decision‐making, twice‐weekly pegcetacoplan was reinitiated at 28 weeks’ gestation with a 4‐week overlap with eculizumab as per standard protocol. Informed consent was obtained for off‐label use in pregnancy, pharmacokinetic sampling, and case reporting. Institutional ethics board review exemption was granted for this single‐patient case report.
(§1) Maternal and fetal outcomes were assessed throughout the third trimester and postpartum. Hematological response was evaluated using serial measurements of hemoglobin, hemolytic markers, and transfusion requirements. Complement levels/activity were measured using immunoturbidimetric assays for C3/C4 (Roche Diagnostics, Germany), and 50% hemolytic complement (CH50) by turbidimetric assay (Optilite, Binding Site, UK). Maternal clinical monitoring included evaluation for breakthrough hemolysis, thrombotic events, and other adverse events. Neonatal outcomes included gestational age at delivery, mode of delivery, birth weight, Apgar scores, and any complications identified during birth, hospitalization, or early follow‐up.

complement C3, C4, CH50 = test: Complement levels/activity (C3/C4 immunoturbidimetric, CH50 turbidimetric) in patient; assay type: in vivo, human; details: normal 42–95
Protocol: as §1

[2] = 4 + 2 w, date of eculizumab initiation

B1: eculizumab (antibody, chains of the INN, looked up)
heavy: QVQLVQSGAEVKKPGASVKVSCKASGYIFSNYWIQWVRQAPGQGLEWMGEILPGSGSTEYTENFKDRVTMTRDTSTSTVYMELSSLRSEDTAVYYCARYFFGSSPNWYFDVWGQGTLVTVSSASTKGPSVFPLAPCSRSTSESTAALGCLVKDYFPEPVTVSWNSGALTSGVHTFPAVLQSSGLYSLSSVVTVPSSNFGTQTYTCNVDHKPSNTKVDKTVERKCCVECPPCPAPPVAGPSVFLFPPKPKDTLMISRTPEVTCVVVDVSQEDPEVQFNWYVDGVEVHNAKTKPREEQFNSTYRVVSVLTVLHQDWLNGKEYKCKVSNKGLPSSIEKTISKAKGQPREPQVYTLPPSQEEMTKNQVSLTCLVKGFYPSDIAVEWESNGQPENNYKTTPPVLDSDGSFFLYSRLTVDKSRWQEGNVFSCSVMHEALHNHYTQKSLSLSLG
light: DIQMTQSPSSLSASVGDRVTITCGASENIYGALNWYQQKPGKAPKLLIYGATNLADGVPSRFSGSGSGTDFTLTISSLQPEDFATYYCQNVLNTPLTFGQGTKVEIKRTVAAPSVFIFPPSDEQLKSGTASVVCLLNNFYPREAKVQWKVDNALQSGNSQESVTEQDSKDSTYSLSSTLTLSKADYEKHKVYACEVTHQGLSSPVTKSFNRGEC
Molecule B1 has a Hapto [1, 2] of 1.2 g/L, an ARC [1, 2] of 9.6e+10 L⁻¹ and a Hb [1, 2] of 107 g/L. For the same molecule, the Bili [1, 2] was 11 µmol/L, the LDH [1, 2] was 217 U/L and the Hapto ([1]; 7 + 3 w, on eculizumab) was 0.74 g/L. It also gave an ARC ([1]; 7 + 3 w, on eculizumab) of 2.15e+11 L⁻¹, a Hb ([1]; 7 + 3 w, on eculizumab) of 102 g/L and a Bili ([1]; 7 + 3 w, on eculizumab) of 13 µmol/L. The LDH ([1]; 7 + 3 w, on eculizumab) was 220 U/L, the Hapto ([1]; 10 + 5 w, on eculizumab) was 0.1 g/L and the ARC ([1]; 10 + 5 w, on eculizumab) was 1.26e+11 L⁻¹. The Hb ([1]; 10 + 5 w, on eculizumab) was 99 g/L, the Bili ([1]; 10 + 5 w, on eculizumab) was 11 µmol/L and the LDH ([1]; 10 + 5 w, on eculizumab) was 256 U/L. It also gave a Hapto ([1]; 14 + 5w, on eculizumab) of 0.1 g/L, an ARC ([1]; 14 + 5w, on eculizumab) of 1.72e+11 L⁻¹ and a Hb ([1]; 14 + 5w, on eculizumab) of 93 g/L. The Bili ([1]; 14 + 5w, on eculizumab) was 6 µmol/L, the LDH ([1]; 14 + 5w, on eculizumab) was 213 U/L and the Hapto ([1]; 21 + 2 w, on eculizumab) was 0.1 g/L. The ARC ([1]; 21 + 2 w, on eculizumab) was 1.97e+11 L⁻¹, the Hb ([1]; 21 + 2 w, on eculizumab) was 85 g/L and the Bili ([1]; 21 + 2 w, on eculizumab) was 8 µmol/L. For the same molecule, the LDH ([1]; 21 + 2 w, on eculizumab) was 246 U/L, the ARC ([1]; 26 + 2 w, on eculizumab) was 1.72e+11 L⁻¹ and the Hb ([1]; 26 + 2 w, on eculizumab) was 82 g/L. For the same molecule, the Bili ([1]; 26 + 2 w, on eculizumab) was 10 µmol/L, the LDH ([1]; 26 + 2 w, on eculizumab) was 243 U/L and the Transfusion requirement ([1]; before pregnancy, eculizumab escalated to 1200 mg intravenous every 11 days) was ~1 unit RBC/month. The Transfusion requirement ([1]; during pregnancy, eculizumab 1200 mg every 11 days) was 2–3 units RBC/month, the CH50 (complement C3, C4, CH50; [2]) was 18 U/mL and the CH50 (complement C3, C4, CH50; 7 + 3 w, on eculizumab) was 23 U/mL. The CH50 (complement C3, C4, CH50; 10 + 5 w, on eculizumab) was 19 U/mL, the CH50 (complement C3, C4, CH50; 14 + 5w, on eculizumab) was 15 U/mL and the CH50 (complement C3, C4, CH50; 21 + 2 w, on eculizumab) was 15 U/mL.
